Measurements published in ChEMBL document CHEMBL4325885, “Design, synthesis, and biological evaluation of novel phenol ether derivatives as non-covalent proteasome inhibitors” (Eur J Med Chem, 2019).

Amino acid sequences for entries named in this document (tags omitted). A change or cut given only in a name is not applied to a line headed by its entry.
UniProt P28074: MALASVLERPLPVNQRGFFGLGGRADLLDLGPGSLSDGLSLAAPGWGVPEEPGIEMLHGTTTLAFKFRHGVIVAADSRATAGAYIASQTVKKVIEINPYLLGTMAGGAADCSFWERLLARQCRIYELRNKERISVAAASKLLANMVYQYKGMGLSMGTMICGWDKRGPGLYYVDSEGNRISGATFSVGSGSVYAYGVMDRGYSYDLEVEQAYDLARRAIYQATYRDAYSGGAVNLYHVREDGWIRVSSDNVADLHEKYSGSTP

Biological target: Proteasome Macropain subunit MB1 (Homo sapiens, UniProt P28074)
Assay: Potency index, ratio of PI-1840 IC50 to test compound IC50 for human chymotrypsin-like activity of 20S constitutive proteasome

Ratio IC50: 2
SMILES: CCCCc1ccc(OCC(=O)N(CC(=O)Nc2ccnnc2)C(C)C)cc1
